# Laboratory results reported in EP2505659A1, “Methods for the identification of dioxygenase interacting molecules and for the purification of dioxygenase proteins” (CELLZOME AG, priority 2011, dated 2012).
# Sequences of proteins named here, by UniProt entry; tags and fusion partners are left off. A change or cut given only in a name is not applied to a line headed by its entry. Residues count along the entry.
# UniProt Q6P6C2: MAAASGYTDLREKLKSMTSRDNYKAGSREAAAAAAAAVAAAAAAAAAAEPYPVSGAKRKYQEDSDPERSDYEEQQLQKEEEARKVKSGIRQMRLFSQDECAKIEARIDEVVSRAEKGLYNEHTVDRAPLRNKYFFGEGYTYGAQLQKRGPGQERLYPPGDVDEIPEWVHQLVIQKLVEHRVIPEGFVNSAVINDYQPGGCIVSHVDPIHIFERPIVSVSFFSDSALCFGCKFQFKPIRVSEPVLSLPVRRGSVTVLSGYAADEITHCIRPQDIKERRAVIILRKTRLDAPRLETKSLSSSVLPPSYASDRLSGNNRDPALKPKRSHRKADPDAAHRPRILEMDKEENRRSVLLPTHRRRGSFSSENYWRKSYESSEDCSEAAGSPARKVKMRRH
# UniProt Q6NS38: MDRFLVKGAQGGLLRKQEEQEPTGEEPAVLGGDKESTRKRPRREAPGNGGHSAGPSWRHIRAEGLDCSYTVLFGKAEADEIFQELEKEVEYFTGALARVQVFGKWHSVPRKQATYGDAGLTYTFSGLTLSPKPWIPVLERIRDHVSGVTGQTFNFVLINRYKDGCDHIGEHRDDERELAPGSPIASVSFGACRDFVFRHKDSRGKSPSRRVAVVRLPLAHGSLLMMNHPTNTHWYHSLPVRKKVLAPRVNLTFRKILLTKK
# UniProt P13674, 18-534: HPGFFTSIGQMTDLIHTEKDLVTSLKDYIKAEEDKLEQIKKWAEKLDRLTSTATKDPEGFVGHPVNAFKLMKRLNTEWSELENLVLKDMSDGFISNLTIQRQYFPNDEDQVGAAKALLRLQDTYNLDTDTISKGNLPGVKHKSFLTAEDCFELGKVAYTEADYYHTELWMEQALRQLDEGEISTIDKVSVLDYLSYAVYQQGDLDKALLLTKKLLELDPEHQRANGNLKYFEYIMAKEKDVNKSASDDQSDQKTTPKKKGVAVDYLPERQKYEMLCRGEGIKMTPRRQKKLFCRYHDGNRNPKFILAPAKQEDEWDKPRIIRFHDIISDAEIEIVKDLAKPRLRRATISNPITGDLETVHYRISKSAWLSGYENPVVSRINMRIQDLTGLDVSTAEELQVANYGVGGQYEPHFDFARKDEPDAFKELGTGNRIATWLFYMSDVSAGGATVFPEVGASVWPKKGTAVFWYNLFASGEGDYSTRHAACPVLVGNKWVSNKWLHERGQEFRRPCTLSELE
# What was measured:
# [1] = biological target: ALKBH5 (Homo sapiens, UniProt Q6P6C2); experiment: biochemical; settings: read-out: Fold change versus DMSO control, ALKBH5, 100 µM free compound A
# Text: (§1) The proteins bound to the immobilized compound were eluted with detergent-containing buffer and separated on a SDS-polyacryamide gel. […] Table 4: Compound treatment and TMT-labeling of cell samples
# (§2) Jurkat cells (ATCC number TIB-152) were either obtained from an external supplier (CIL SA, Mons, Belgium) or grown in one litre Spinner flasks (Integra Biosciences, #182101) in suspension in RPMI 1640 medium (Invitrogen, #21875-034) supplemented with 10% Fetal Bovine Serum (Invitrogen, #10270-106) at a density between 0.2 x 10^6 and 1.0 x 10^6 cells/ml. Cells were harvested by centrifugation, washed once with 1 x PBS buffer (Invitrogen, #14190-094) and cell pellets were frozen in liquid nitrogen and subsequently stored at -80°C.
# (§3) Source of HL-60 cells: HL-60 cell line (DSMZ, Braunschweig, Germany; DSMZ number ACC3). K562 cells were also purchased from DSMZ (Braunschweig, Germany).
# (§4) Extracts of nuclei were prepared according to the Dignam protocol (Dignam et al., 1983. Nucleic Acids Res. 11 (5):1475-89).
# (§5) The TMT reagents are a set of multiplexed, amine-specific, stable isotope reagents that can label peptides on amino groups in up to six different biological samples enabling simultaneous identification and quantitation of peptides. The TMT reagents were used according to instructions provided by the manufacturer. The samples were resuspended in 10 µl 50 mM TEAB solution, pH 8.5 and 10 µl acetonitril were added. The TMT reagent was dissolved in acetonitrile to a final concentration of 24 mM and 10 µl of reagent solution were added to the sample. The labeling reaction was performed at room temperature for one hour on a horizontal shaker and stopped by adding 5 µl of 100 mM TEAB and 100 mM glycine in water. The labeled samples were then combined, dried in a vacuum centrifuge and resuspended in 60% 200mM TEAB / 40% acetonitril.
# (§6) Table 5: Peptide elution off the LC system
# [2] = biological target: ALKBH2 (Homo sapiens, UniProt Q6NS38); experiment: biochemical; settings: read-out: Fold change versus DMSO control, ALKBH2, 100 µM free compound A
# Text: as §1, §2, §3, §4, §5, §6
# [3] = biological target: P4HA1 (Homo sapiens, UniProt P13674); experiment: Bead competition binding assay, immobilized compound A, K-562, HL-60 and Jurkat nuclear lysates; set-up: endogenous in cells; settings: read-out: Fold change versus DMSO control
# Text: as §1, §2, §3, §4
# The TMT reagents are a set of multiplexed, amine-specific, stable isotope reagents that can label peptides on amino groups in up to six different biological samples enabling simultaneous identification and quantitation of peptides. The TMT reagents were used according to instructions provided by the manufacturer. […]
# [4] = biological target: T1, PLOD3 (Homo sapiens, UniProt O60568); experiment: as above; set-up: capturing and identification of dioxygenases from nuclear protein extracts; endogenous in cells; settings: 100 µM free compound A, HL-60 nuclear lysate, read-out: Fold change versus DMSO control
# T1 sequence (O60568 25-738): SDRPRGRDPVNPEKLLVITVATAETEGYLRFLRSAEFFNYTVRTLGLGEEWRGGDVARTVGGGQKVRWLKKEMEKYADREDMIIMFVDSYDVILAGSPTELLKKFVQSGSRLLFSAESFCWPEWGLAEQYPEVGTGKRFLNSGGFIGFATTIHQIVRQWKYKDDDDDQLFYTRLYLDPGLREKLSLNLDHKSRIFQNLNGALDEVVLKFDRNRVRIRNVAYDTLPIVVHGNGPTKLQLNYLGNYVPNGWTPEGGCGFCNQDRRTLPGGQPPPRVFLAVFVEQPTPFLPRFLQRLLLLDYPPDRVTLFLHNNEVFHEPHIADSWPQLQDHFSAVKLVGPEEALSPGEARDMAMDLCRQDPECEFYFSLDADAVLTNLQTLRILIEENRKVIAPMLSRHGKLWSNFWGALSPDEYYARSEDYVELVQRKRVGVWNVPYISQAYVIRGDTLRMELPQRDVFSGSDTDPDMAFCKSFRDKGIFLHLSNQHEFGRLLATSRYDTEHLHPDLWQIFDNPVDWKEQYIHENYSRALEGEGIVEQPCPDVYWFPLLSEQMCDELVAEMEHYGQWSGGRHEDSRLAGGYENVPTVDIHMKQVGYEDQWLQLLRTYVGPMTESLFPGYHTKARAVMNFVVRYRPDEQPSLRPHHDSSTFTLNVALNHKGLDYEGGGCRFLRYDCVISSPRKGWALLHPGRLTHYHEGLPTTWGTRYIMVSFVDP
# Text: K562 cells were also purchased from DSMZ (Braunschweig, Germany).
# as §6
# Seventeen different dioxygenases were identified.
compound,measurement,setting,value
"O=C(O)CNC(=O)C1C(=O)OC2(CCNCC2)OC1=O [compound A, 2-(2,4-dioxo-1,5-dioxa-9-azaspiro[5.5]undecane-3-carboxamido)acetic acid hydrochloride]",remaining activity at 100 µM,[1]; HL-60 nuclear lysate,78%
same,remaining activity at 100 µM,[1]; Jurkat nuclear lysate,56%
same,remaining activity at 100 µM,[1]; K-562 nuclear lysate,44%
same,remaining activity at 100 µM,[2]; HL-60 nuclear lysate,178%
same,remaining activity at 100 µM,[2]; Jurkat nuclear lysate,108%
same,remaining activity at 100 µM,[2]; K-562 nuclear lysate,85%
same,remaining binding at 100 µM,[3],14%
same,remaining binding at 100 µM,[4],112%

# Where a name gives a salt, the structure may show the parent alone. Read-outs that look alike come from different tables or passages of the source.
